Results as given in patent US11040027B2, “Protein kinase inhibitors for promoting liver regeneration or reducing or preventing hepatocyte death” (HEPAREGENIX GMBH, priority 2017, dated 2021).

By UniProt entry, the sequences of proteins in these tests, tags left out. Residues count along the entry.
UniProt P15056, whole entry: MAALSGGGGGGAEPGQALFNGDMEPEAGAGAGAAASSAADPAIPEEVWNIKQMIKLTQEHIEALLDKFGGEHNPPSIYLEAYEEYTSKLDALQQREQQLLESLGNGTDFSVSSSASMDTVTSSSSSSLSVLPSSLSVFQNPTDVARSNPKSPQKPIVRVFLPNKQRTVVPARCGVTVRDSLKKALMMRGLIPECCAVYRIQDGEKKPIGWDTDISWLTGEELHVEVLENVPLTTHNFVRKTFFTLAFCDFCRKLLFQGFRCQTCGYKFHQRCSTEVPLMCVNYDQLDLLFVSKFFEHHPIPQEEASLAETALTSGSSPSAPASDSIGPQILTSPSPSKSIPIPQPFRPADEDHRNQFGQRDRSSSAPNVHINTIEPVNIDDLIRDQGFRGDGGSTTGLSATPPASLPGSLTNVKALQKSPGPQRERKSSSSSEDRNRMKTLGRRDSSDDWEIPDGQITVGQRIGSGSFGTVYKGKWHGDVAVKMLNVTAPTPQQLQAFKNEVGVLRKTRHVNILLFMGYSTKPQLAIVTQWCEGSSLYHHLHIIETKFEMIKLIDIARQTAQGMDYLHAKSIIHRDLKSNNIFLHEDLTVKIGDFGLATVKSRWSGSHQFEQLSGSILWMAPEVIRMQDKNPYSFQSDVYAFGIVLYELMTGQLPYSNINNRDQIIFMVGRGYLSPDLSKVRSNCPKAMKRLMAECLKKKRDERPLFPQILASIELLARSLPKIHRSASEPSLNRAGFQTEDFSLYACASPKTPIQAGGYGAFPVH
UniProt P45983, 1-384 isoform P45983-2: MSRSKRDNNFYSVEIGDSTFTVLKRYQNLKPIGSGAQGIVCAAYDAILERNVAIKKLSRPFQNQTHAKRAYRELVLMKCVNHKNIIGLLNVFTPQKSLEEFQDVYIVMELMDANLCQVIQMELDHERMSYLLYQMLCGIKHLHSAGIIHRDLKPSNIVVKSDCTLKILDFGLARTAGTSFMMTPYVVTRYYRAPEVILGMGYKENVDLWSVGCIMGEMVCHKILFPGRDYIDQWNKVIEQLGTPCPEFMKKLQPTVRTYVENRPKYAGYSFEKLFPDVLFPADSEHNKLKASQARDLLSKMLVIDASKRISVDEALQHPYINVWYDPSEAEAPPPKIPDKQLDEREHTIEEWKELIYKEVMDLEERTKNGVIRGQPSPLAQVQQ

Key:
BRaf = BRaf (Homo sapiens, UniProt P15056); assay: KINOMEscan competition binding assay, selectivity BRaf versus MKK4; details: Test conc. 0.1 μM; ratio of percent of control; N/E* per footnote
Procedure: The assay was performed by combining three components: DNA-tagged kinase; immobilized ligand; and a test compound. The ability of the test compound to compete with the immobilized ligand was measured via quantitative PCR of the DNA tag. The technology is described in detail in Fabian, M. A. et al. A small molecule-kinase interaction map for clinical kinase inhibitors. Nat. […] Nat.
The test compounds were provided as 10 mM stock solutions. The test solutions at indicated final concentrations were prepared at DiscoverX.

JNK1 = JNK1 (Homo sapiens, UniProt P45983); assay: KINOMEscan competition binding assay, selectivity JNK1 versus MKK4; details: ratio of percent of control
MKK4 = target: T1, MKK4 (Homo sapiens, UniProt P45985); assay: KINOMEscan competition binding assay, MKK4; details: read-out: Potency MKK4 (derived from % of control values, PoC)
T1 sequence (P45985 84-399): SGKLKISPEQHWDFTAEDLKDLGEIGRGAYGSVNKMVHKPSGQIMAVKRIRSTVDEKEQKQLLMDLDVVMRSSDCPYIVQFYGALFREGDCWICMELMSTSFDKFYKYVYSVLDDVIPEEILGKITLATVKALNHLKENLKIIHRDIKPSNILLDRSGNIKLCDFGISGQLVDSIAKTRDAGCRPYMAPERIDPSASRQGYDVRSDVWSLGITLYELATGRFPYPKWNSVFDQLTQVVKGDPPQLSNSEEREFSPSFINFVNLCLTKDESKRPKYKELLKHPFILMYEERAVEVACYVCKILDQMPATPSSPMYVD

MKK7 = target: T2, MKK7 (Homo sapiens, UniProt O14733); assay: KINOMEscan competition binding assay, selectivity MKK7 versus MKK4; details: Test conc. 0.1 μM; ratio of percent of control; N/E* per footnote
T2 sequence (O14733 1-419): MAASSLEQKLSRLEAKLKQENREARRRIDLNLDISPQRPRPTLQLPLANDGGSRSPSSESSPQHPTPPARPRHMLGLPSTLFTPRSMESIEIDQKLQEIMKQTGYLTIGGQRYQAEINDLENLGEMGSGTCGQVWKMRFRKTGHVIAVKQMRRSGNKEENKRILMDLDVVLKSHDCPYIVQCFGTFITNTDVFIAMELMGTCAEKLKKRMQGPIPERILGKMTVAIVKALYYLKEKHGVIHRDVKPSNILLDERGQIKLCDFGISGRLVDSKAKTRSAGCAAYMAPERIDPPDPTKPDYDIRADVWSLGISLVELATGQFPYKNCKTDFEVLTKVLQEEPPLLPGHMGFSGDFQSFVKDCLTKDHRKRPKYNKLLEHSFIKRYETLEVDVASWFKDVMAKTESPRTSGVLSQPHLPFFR

MKK4 active = target: T3, MKK4 active (Homo sapiens, UniProt P45985); assay: Radiometric protein kinase assay, MKK4 active; assay type: biochemical
T3 construct: purchased ProQinase 0948-0000-1
T3 sequence (P45985 1-399): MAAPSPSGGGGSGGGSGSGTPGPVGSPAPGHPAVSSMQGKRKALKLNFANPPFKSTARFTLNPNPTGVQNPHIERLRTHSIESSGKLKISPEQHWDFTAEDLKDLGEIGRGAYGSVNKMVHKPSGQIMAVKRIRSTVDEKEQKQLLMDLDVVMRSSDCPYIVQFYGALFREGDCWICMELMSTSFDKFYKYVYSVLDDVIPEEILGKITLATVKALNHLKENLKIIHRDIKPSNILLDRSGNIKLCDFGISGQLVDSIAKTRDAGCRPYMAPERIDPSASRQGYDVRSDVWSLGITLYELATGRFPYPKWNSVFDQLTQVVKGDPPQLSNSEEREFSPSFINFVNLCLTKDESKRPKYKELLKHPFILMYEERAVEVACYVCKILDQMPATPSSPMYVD
Procedure: A radiometric protein kinase assay was used for measuring the kinase activity of the respective protein kinases. All kinase assays were performed in 96-well polypropylene plates. After the reactions were stopped, the assay mixtures were transferred to 96-well MSFC filter-plates (Millipore). The reaction mix was passed through the filter membrane by aspiration, the membrane was washed 3 times with 150 mM H3PO4, once with ethanol, dried and liquid scintillation cocktail was added. Radioactivity was determined by counting of the samples in a Microbeta multiwell scintillation counter (Wallac).
b) Single Kinases • 20 μl standard assay buffer • 5 μl compound in 10% DMSO • 20 μl enzyme-substrate mix • 10 μl of substrate solution
The reaction cocktails were incubated at 30° C. for 30 minutes.

[1] = Test conc 0.1 μM, N/E* = PoC for JNK1 = 100

CCCS(=O)(=O)Nc1ccc(F)c(C(=O)c2c[nH]c3ncc(-c4cccs4)cc23)c1F [Example 5, N-(2,4-Difluoro-3-(5-(thiophen-2-yl)-1H-pyrrolo[2,3-b]pyridine-3-carbonyl)phenyl)propane-1-sulfonamide]
Selectivity BRaf/MKK4 (BRaf): 2.9 | Selectivity JNK1/MKK4 (JNK1; Test conc 10 μM): >100 | remaining binding at 0.1 µM (MKK4): 10 to 30% | Selectivity MKK7/MKK4 (MKK7): 22

CCCS(=O)(=O)Nc1ccc(F)c(C(=O)c2c[nH]c3ncc(-c4cccc(N)c4)cc23)c1F [Example 19, N-(3-(5-(3-Aminophenyl)-1H-pyrrolo[2,3-b]pyridine-3-carbonyl)-2,4-difluorophenyl)propane-1-sulfonamide]
Selectivity BRaf/MKK4 (BRaf): 3.4 | IC50 (MKK4 active; MKK4 active, substrate JNK1 KRKR, ATP 0.2 μM, read-out: MKK4 (potency derived from IC50-values)): < 500 nM | Selectivity JNK1/MKK4 (JNK1; Test conc 10 μM): 1 | remaining binding at 0.1 µM (MKK4): 10 to 30% | Selectivity MKK7/MKK4 (MKK7): 60

CCCS(=O)(=O)Nc1ccc(C)c(C(=O)c2c[nH]c3ncc(-c4ccc(Cl)cc4)cc23)c1 [Example 26, N-(3-(5-(4-Chlorophenyl)-1H-pyrrolo[2,3-b]pyridine-3-carbonyl)-4-methylphenyl)propane-1-sulfonamide]
remaining binding at 0.1 µM (MKK4): > 30%

CS(=O)(=O)Nc1cccc(C(=O)c2c[nH]c3ncc(-c4ccc(Cl)cc4)cc23)c1F [Example 35, N-(3-(5-(4-Chlorophenyl)-1H-pyrrolo[2,3-b]pyridine-3-carbonyl)-2-fluorophenyl)methanesulfonamide]
Selectivity BRaf/MKK4 (BRaf): 3.3 | Selectivity JNK1/MKK4 (JNK1; [1]): N/E* (PoC for JNK1 = 100) | remaining binding at 0.1 µM (MKK4): 10 to 30% | Selectivity MKK7/MKK4 (MKK7): 2.9

CCCS(=O)(=O)Nc1ccc(F)c(C2(c3c[nH]c4ncc(-c5ccc(Cl)cc5)cc34)OCCO2)c1F [Example 104, N-(3-(2-(5-(4-chlorophenyl)-1H-pyrrolo[2,3-b]pyridin-3-yl)-1,3-dioxolan-2-yl)-2,4-difluorophenyl)propane-1-sulfonamide]
IC50 (MKK4 active): 1000 to 10000 nM

CCCS(=N)(=O)Nc1ccc(F)c(C(=O)c2c[nH]c3ncc(-c4ccc(Cl)cc4)cc23)c1F (stereo not shown) [Example 112, N-(3-(5-(4-chlorophenyl)-1H-pyrrolo[2,3-b]pyridine-3-carbonyl)-2,4-difluorophenyl)propane-1-sulfonimidamide]
Selectivity BRaf/MKK4 (BRaf): 1.4 | Selectivity JNK1/MKK4 (JNK1; [1]): 3.5 | remaining binding at 0.1 µM (MKK4): 10 to 30% | Selectivity MKK7/MKK4 (MKK7): 3.8

Read-outs that look alike come from different tables or passages of the source.
